From ChEMBL document CHEMBL1132657, “CoMFA study of novel phenyl ring-substituted 3alpha-(diphenylmethoxy)tropane analogues at the dopamine transporter” (J Med Chem, 1999)

Chains of the proteins cited; added tags and fusions are not shown.
UniProt P23977, whole entry: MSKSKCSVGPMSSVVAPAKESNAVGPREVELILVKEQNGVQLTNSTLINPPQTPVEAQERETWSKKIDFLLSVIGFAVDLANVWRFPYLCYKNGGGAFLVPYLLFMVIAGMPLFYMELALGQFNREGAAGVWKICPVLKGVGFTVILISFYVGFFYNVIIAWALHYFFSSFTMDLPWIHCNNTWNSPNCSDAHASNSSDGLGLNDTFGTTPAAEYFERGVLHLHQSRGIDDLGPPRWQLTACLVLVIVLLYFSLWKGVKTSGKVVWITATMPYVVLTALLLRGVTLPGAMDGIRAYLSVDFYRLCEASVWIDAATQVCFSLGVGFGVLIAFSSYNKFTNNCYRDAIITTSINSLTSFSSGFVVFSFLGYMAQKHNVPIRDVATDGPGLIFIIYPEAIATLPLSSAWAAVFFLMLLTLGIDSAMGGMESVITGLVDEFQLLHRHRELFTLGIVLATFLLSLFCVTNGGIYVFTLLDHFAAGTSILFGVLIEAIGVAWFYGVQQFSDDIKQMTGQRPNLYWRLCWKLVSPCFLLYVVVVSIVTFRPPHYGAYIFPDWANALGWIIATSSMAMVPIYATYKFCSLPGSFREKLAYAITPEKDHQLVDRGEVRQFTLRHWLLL

Molecular target: Sodium-dependent dopamine transporter (Rattus norvegicus, UniProt P23977)
Assay: Displacement of [3H]WIN-35428 binding to the dopamine transporter in rat caudate putamen tissue.
Format: tissue-based

CN1[C@@H]2CC[C@H]1C[C@@H](OC(c1ccc(F)cc1)c1cccc(F)c1)C2 (stereo partly specified)
Ki: 23.3 nM
